Laboratory results as given in patent US20170129926A1.

Assays:
human IL-6 (human) [1] = biological target: human IL-6 (human) (UniProt P05231); test: SPR (ProteOn), polypeptide immobilized, rhIL-6 analyte, mean of three
human IL-6 (human) [2] = biological target: human IL-6 (human) (UniProt P05231); test: ELISA, IL-6 coated, anti-human IgG Fc-HRP detection
TNF (human) = TNF (human) (UniProt P01375); test: ELISA, TNF coated, anti-human IgG Fc-HRP detection

| Substance | Kd (human IL-6 (human) [1]) | EC50 (human IL-6 (human) [2]) | EC50 (TNF (human)) |
| --- | --- | --- | --- |
| LCAda-Z06814 (bispecific antibody; other documents disagree on this pair) | 0.93 nM | – | – |
| Z06814-HCAda (bispecific antibody; other documents disagree on this pair) | 0.72 nM | – | – |
| Z14976-(GGGGS)3-LCAda (bispecific antibody; other documents disagree on this pair) | – | 0.95 nM | 0.12 nM |
| Z14976-(GGGGS)-LCAda (bispecific antibody; other documents disagree on this pair) | – | 0.56 nM | 0.094 nM |
